# According to PubChem BioAssay (EPA / NIEHS):
# The entries are a selection whose mix differs from that of the whole data set. Active and inactive are the calls of the source. The calls were made as follows: active = hit-call score of the fitted dose curve at least 0.9, where 1 is the maximum; inactive = score below 0.9.
# Experiment: ATG_TCF_b_cat_CIS: Attagene CIS-FACTORIAL HepG2 Assay for human T-Cell-Factor with beta-catenin (TCF/b-cat) (AID 2282965)
# Details: HepG2 TCF/beta-catenin cis-reporter transcription, actives raise or lower the signal
# Procedure: ATG_CIS is a cell-based, multiplexed-readout assay that uses HepG2, a human liver cell line, with measurements taken at 24 hours after chemical dosing in a 24-well plate.ATG_TCF_b_cat_CIS is one of 52 assay component(s) measured or calculated from the ATG_CIS assay. It is designed to make measurements of mRNA induction, a form of inducible reporter, as detected with fluorescence intensity signals by Reverse transcription polymerase chain reaction (RT-PCR) and Capillary electrophoresis technology.Data from the assay component ATG_TCF_b_cat_CIS was analyzed into 1 assay endpoint. This assay endpoint, ATG_TCF_b_cat_CIS, was analyzed with bidirectional fitting relative to DMSO as the negative control and baseline of activity. Using a type of inducible reporter, measures of mRNA for gain or loss-of-signal activity can be used to understand the reporter gene at the transcription factor-level as they relate to the gene TCF7 and TCF7L2 and LEF1 and TCF7L1. Furthermore, this assay endpoint can be referred to as a primary readout, because this assay has produced multiple assay endpoints where this one serves a reporter gene function. To generalize the intended target to other relatable targets, this assay endpoint is annotated to the dna binding intended target family, where the subfamily is HMG box protein.
# Human liver HepG2 cells are transiently transfected with multiple reporter transcription units (MRTUs) in 6-well plates using FuGene 6 reagent (Roche; 3 ml FuGene/1 mg DNA). The MRTU constructs are regulated by a cis-regulating element (promoter). […] A major difference between the CIS and TRANS system is that in CIS activities of endogenous TFs are measured, whereas the TRANS assay evaluates changes in activities of exogenous, chimeric NR-Gal4 proteins. […] At the end of 24 hour incubation, total RNA was isolated using TriZol reagent (Invitrogen). The isolated RNA is then reverse-transcribed using oligo(dT) primer and Mo-MLV reverse transcriptase (Invitrogen) with DNAse I (Ambion) treatment for 30 min. The one-tenth of the produced cDNA was amplified by PCR using Taq DNA polymerase (Invitrogen) and two reporter sequence-specific primers. The PCR products were fluorescently labeled by primer extension with 6-arboxyfluorescein (6-FAM) 5'-labeled reporter sequence-specific primer (2 min at 95 C, 20 s at 68 C and 10 min at 72 C) and these products were digested with 5U of HpaI (New England Biolabs) for 2h at 37 C. The fragments were purified using Qiaquick PCR columns (Qiagen), analyzed on an ABI 3130xL genetic analyzer (Applied Biosystems) with peak positions identified by using a set of X-rhodamine (ROX)-labeled MapMarker1000 molecular weight standards (BioVentures). The raw capillary electrophoresis data was processed using Attagraph software (Attagene).
Compound,outcome,AC50
O=P(Cl)(Oc1ccccc1)Oc1ccccc1,inactive,–
CC(C)CCCCCCCOP(OCCCCCCCC(C)C)Oc1ccccc1,inactive,–
CN(C(=O)Cc1cccc2occc12)[C@H]1CC[C@@]2(CCCO2)C[C@@H]1N1CCCC1,inactive,–
O=[As]c1ccccc1 (stereo unspecified),–,active: 173 nM
O=C1C2CC=CCC2C(=O)N1SC(Cl)(Cl)C(Cl)Cl (stereo unspecified),inactive,–
O=[p+]1oc2ccccc2c2ccccc21 (stereo unspecified),inactive,–
O=C(Cl)OCCOC(=O)Cl,inactive,–
CC(C)OP(=S)(OC(C)C)SCCNS(=O)(=O)c1ccccc1,inactive,–
O=C(Cl)Oc1ccccc1,inactive,–
Cc1cc([N+](=O)[O-])cc([N+](=O)[O-])c1O,inactive,–
O=[N+]([O-])c1ccc([N+](=O)[O-])cc1,inactive,–
O=[P+](Oc1ccccc1)Oc1ccccc1,inactive,–
CCCCOP(OCCCC)OCCCC,inactive,–
CCCCC(CC)CO[P+](=O)OCC(CC)CCCC (stereo unspecified),inactive,–
CCCCO[P+](=O)OCCCC,inactive,–
ClP(Cl)c1ccccc1,inactive,–
